Laboratory results from paper PMC12256496, “An advancement in developmental and reproductive toxicity (DART) risk assessment: evaluation of a bioactivity and exposure-based NAM toolbox” (Frontiers in Toxicology, 2025).
“And” between values parts separate entries of the source, which are not always exact repeats. Identical values can stand only once. Like-named read-outs stand apart in the source and are kept apart here.

Key:
[1] = test system: rabbits; set-up: method as in Supplementary Data Sheet 1; settings: rabbit studies; ref Supplementary Data Sheet 1; cited from earlier work
[2] = test system: human developmental and reproductive toxicity; settings: cited from earlier work
[3] = test system: developmental or reproductive toxicity in animal or human; settings: evidence of developmental or reproductive toxicity in animal or human, irrespective of exposure/dose; ref Supplementary Data Sheet 1; cited from earlier work
[4] = ref [15]; cited from earlier work
[5] = test system: rats; settings: 2 rat studies; ref Supplementary Data Sheet 1; cited from earlier work
[6] = Human in vivo PK data: concentration-dose ratio (CDR) and toxicokinetic variability factor (TKVF); set-up: 95% percentile (Conc-dose-ratio): unit not given here;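 further: Literature-pooled human in vivo PK data, plasma, serum or cord blood concentrations per daily dose, weighted by study population size across non-pregnant, pregnant and fetal groups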
[7] = Non-Pregnant, combined (oral+IV)

In the case of CCCCC(CC)C(=O)O (centres unmarked) [2-Ethylhexanoic acid (2-EHA), 2-Ethylhexanoic acid], the “NOAEL for developmental toxicity” value [1] is given as ≥ 250 mg/kg bw/day, the “NOAEL for maternal toxicity” value [1] is given as 25 mg/kg bw/day and the “Exposure risk (DART risk classification)” value [2] is given as “Uncertain”. For the same molecule, the “DART Hazard Call” value [3] was “Toxic”, the Fup [4] was 13.16% and the “NOAEL for maternal toxicity” value [5] was > 250 mg/kg bw/day and 300 mg/kg bw/day.

In the case of Cc1cc(C(C)(C)C)c(O)c(C(C)(C)C)c1 [Butylated hydroxytoluene (BHT), Butylated hydroxytoluene], the “Exposure risk (DART risk classification)” value ([2]; Cosmetic, aggregate (max 0.8%), dermal, ref Supplementary Data Sheet 1) is listed as “Low Risk”.

For CCOC(=O)c1ccccc1C(=O)OCC [Diethyl phthalate (DEP), Diethyl phthalate], the “Exposure risk (DART risk classification)” value ([2]; Cosmetic, aggregate (max 10%), dermal, ref Supplementary Data Sheet 1) is listed as “Low Risk”.

For CCN(CC)CCNC(=O)c1cc(Cl)c(N)cc1OC [Metoclopramide], the “CDR fold difference to non-pregnant” value ([6]; Fetus population) was 1.50, the “CDR fold difference to pregnant” value ([6]; Fetus population) was 1.04 and the “95% percentile (Conc-dose-ratio)” value ([6]; Foetus, IV) was 0.05. The “Fold Difference to non-pregnant” value ([6]; Foetus, IV) was 1.50, the “Fold Difference to pregnant” value ([6]; Foetus, IV) was 1.04 and the “Mean Conc-dose -ratio” value ([6]; Foetus, IV) was 0.027 uM/(mg/day]. For the same molecule, the “CDR fold difference to non-pregnant” value ([6]; Non-Pregnant population (reference)) was 1.00, the “95% percentile (Conc-dose-ratio)” value [6, 7] was 0.05 and the “Fold Difference to non-pregnant” value [6, 7] was 1.00. The “Mean Conc-dose -ratio” value [6, 7] was 0.018 uM/(mg/day], the “CDR fold difference to non-pregnant” value ([6]; Pregnant population) was 1.45 and the “CDR fold difference to pregnant” value ([6]; Pregnant population (reference)) was 1.00. The “95% percentile (Conc-dose-ratio)” value ([6]; Pregnant, IV) was 0.07, the “Fold Difference to non-pregnant” value ([6]; Pregnant, IV) was 1.45 and the “Fold Difference to pregnant” value ([6]; Pregnant, IV) was 1.00. The “Mean Conc-dose -ratio” value ([6]; Pregnant, IV) was 0.026 uM/(mg/day], the “Exposure risk (DART risk classification)” value ([2]; Pharmaceutical, 10 mg/daily, IV, ref Supplementary Data Sheet 1) was “Uncertain Risk” and the “Exposure risk (DART risk classification)” value ([2]; Pharmaceutical, 60 mg/daily, oral, ref Supplementary Data Sheet 1) was “High Risk”.

For CN(CCOc1ccc(CC2SC(=O)NC2=O)cc1)c1ccccn1 (centres unmarked) [Rosiglitazone], the “CDR fold difference to non-pregnant” value ([6]; female, human, in vivo) was 0.19, the “95% percentile (Conc-dose-ratio)” value ([6]; female, human, in vivo, po) was 0.0661 and the “Fold Difference to non-pregnant” value ([6]; female, human, in vivo, po) was 0.19. For the same molecule, the “Mean Conc-dose -ratio” value ([6]; female, human, in vivo, po) was 0.04 uM/(mg/day], the “CDR fold difference to non-pregnant” value ([6]; human, in vivo) was 1.00 and the “95% percentile (Conc-dose-ratio)” value ([6]; human, in vivo, po) was 0.89. For the same molecule, the “Fold Difference to non-pregnant” value ([6]; human, in vivo, po) was 1.00, the “Mean Conc-dose -ratio” value ([6]; human, in vivo, po) was 0.21 uM/(mg/day] and the “Exposure risk (DART risk classification)” value ([2]; Pharmaceutical, 4 mg/daily, oral, ref Supplementary Data Sheet 1) was “High Risk”. For the same molecule, the “DART Hazard Call” value [3] was “Toxic”.

In the case of Cn1c(=O)c2[nH]cnc2n(C)c1=O [Theophylline], the “CDR fold difference to non-pregnant” value ([6]; female, human, in vivo) is reported as 1.58, the “CDR fold difference to pregnant” value ([6]; female, human, in vivo) is reported as 1.00 and the “CDR fold difference to pregnant” value ([6]; human, in vivo) is reported as 0.84. For the same molecule, the “Exposure risk (DART risk classification)” value ([2]; Pharmaceutical, 800 mg/daily, IV, ref Supplementary Data Sheet 1) was “High Risk” and the “DART Hazard Call” value [3] was “Toxic”.
